Experimental data published in US20240408175A1, “BMP9 OR AN AGONIST THEREOF AND ITS USES RELATED TO REDUCING METASTASIS OF CANCER” (THE UAB RESEARCH FOUNDATION, priority 2021, published 2024).

Legend:
Type in all cases: cell-based, human
[1] = test system: 1-kb SOX2 promoter reporter; assay: pGL3-SOX2 promoter-reporter luciferase assay in HEK293 cells; conditions: 10 nM, 24 hours, serum-free
Description: HEK293 cells were transfected with the pGL3-SOX2 promoter-luciferase reporter plasmid construct and SV40-renilla for 24h. Treatment with BMP2 or BMP9 or TGF-or Activin A was carried out for 24 hours in serum-free media at either 10 nM or 400 pM respectively. According to the manufacturer's instruction, cells were collected and lysed in […] passive lysis buffer. To measure luciferase activity, […] of lysate was added to […] of dual Luciferase Assay Reagent, and luminescence was quantitated using a luminometer (Biotek).

SOX2 = SOX2 expression by Western blot / qRT-PCR in cancer cells
Description: Lysate and RNA preparation: 100,000-300,000 cells were seeded in a poly-HEMA coated 6-well plate for indicated times in full serum unless indicated otherwise. Cells were collected by centrifugation and lysed with trizol for RNA extraction or direct 2× lysis buffer for protein lysates.
Xenograft data were analyzed using parametric statistics as described in the legends. Survival curves were analyzed with log-rank statistics. In vitro experiments were analyzed using parametric statistics (ANOVA global test with Dunnett's/Sidak multiple comparison test as post-hoc tests as applicable and described in legend) and presented as the mean±SEM. All real time PCR's are relative semi quantitative RT-PCR's (hereby referred to as qRT-PCR) and are a combined quantitation of a minimum of 3 independent biological trials assayed in triplicate with biological replicates represented as individual scatter dots in the graphs or as indicated in legends. In all cases, statistical significance was set at a threshold of p<0.05. All statistical analyses were conducted with GraphPad Prism Software Ver. 9.0 and specific statistical test information described in figure legends.

PA1 cells = assay: Sulforhodamine B (SRB) growth assay, attached 2D; conditions: 10 nM, 3 days
Description: Growth of cells was monitored by seeding 1,000 cells per well in a 96 well plate, followed by treatment with 10 nM BMP2/9 for indicated times. At endpoint, medium was shaken out from plates, followed by addition of cold 10% trichloroacetic acid in each well, and incubation at 4° C. for 10 minutes. Five sequential wash steps were performed by complete immersion in water and shake out of the water from the plate. Next, 0.4% sulforhodamine B (SRB) in 1% acetic acid was added to each well and incubated at room temperature for 10 minutes. Five washed were done by complete immersion in 1% acetic acid followed by complete removal of the remaining wash. Plates were air dried overnight. Finally, […] of 20 mM Tris pH 10 (unbuffered) was added to each well and plate rocked on a rotary shaker for 1-2 hours and absorbance measured at 570 nm with a plate reader (Vichai and Kirtikara, 2006).

[2] = test system: OC cell lines (PA1, OVCA420, OVCAR3, SKOV3, OVCA433); assay: Live/Dead analysis under anchorage independence (anoikis), panel of OC cell lines; conditions: 10 nM for 24 hours after 48 hours anchorage independence
Description: For Live/Dead analysis under anchorage independence, 1,000 cells were seeded in 96-well hydrogel-coated ultra-low attachment (ULA) plates (Corning #4515) for times indicated. Growth factor treatment was done under low serum 2.5% FBS condition (Cells were plated in 10% FBS to allow spheroid formation before beginning treatment). Cells were then stained with 2 μM Calcein-AM and 4 μM Ethidium-homodimer for 30 min before imaging. z-stacked images were obtained using the Zeiss LSM700 Confocal microscope (Microscopy and Flow Cytometry Core, University of South Carolina) and NIKON A1 Confocal microscope (UAB High Resolution Imaging Facility). Fluorescent quantification was performed using ImageJ Fiji software to calculate the Corrected Total Cell Fluorescent (CTCF)=Integrated Density−(Area of selected cell×Mean fluorescence of background readings) per spheroid.

B1: BMP2: recombinant human BMP2, BMP ligand of the TGF-β family (protein, UniProt P12643 283-396, looked up)
Bone morphogenetic protein 2: QAKHKQRKRLKSSCKRHPLYVDFSDVGWNDWIVAPPGYHAFYCHGECPFPLADHLNSTNHAIVQTLVNSVNSKIPKACCVPTELSAISMLYLDENEKVVLKNYQDMVVEGCGCR
luciferase activity of SOX2 promoter reporter [1]: significantly reduce | SOX2 protein and RNA levels (SOX2; 10 nM, 24 hours, PA1 (and OVCAR3) cells): downregulation | SOX2 expression in other cancer types (SOX2; A549, BON-1, H727 cells, 24 hours): downregulated | anchorage-independence-induced increases in SOX2 (SOX2; OVCAR4, OVCA420, OVCA433 cells, 3D): effectively suppressed | dose-response of SOX2 protein (SOX2; PA1 and OVCAR3, indicated doses, 24 h): dose-dependent repression | cell growth (PA1 cells): did not alter | percentage of dead cells [2]: increase
